By UniProt entry, the sequences of proteins in these tests, tags left out. Residues count along the entry.
UniProt Q66PY0, 1-580 R304K: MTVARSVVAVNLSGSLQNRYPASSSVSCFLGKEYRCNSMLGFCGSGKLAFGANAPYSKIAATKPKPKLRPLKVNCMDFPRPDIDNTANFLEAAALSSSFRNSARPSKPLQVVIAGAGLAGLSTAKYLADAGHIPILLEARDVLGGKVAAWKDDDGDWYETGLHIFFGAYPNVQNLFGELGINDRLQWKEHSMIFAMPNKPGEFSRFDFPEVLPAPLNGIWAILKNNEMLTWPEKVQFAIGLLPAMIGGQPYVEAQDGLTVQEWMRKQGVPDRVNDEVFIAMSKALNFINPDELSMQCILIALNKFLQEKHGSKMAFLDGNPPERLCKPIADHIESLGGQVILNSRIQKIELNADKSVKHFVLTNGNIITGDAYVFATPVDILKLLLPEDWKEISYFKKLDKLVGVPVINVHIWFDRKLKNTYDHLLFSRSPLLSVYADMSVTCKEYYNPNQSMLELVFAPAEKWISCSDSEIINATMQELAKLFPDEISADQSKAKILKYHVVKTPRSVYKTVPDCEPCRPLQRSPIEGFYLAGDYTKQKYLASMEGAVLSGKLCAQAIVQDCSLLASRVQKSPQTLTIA
UniProt Q66PY0, 1-580 R304Y: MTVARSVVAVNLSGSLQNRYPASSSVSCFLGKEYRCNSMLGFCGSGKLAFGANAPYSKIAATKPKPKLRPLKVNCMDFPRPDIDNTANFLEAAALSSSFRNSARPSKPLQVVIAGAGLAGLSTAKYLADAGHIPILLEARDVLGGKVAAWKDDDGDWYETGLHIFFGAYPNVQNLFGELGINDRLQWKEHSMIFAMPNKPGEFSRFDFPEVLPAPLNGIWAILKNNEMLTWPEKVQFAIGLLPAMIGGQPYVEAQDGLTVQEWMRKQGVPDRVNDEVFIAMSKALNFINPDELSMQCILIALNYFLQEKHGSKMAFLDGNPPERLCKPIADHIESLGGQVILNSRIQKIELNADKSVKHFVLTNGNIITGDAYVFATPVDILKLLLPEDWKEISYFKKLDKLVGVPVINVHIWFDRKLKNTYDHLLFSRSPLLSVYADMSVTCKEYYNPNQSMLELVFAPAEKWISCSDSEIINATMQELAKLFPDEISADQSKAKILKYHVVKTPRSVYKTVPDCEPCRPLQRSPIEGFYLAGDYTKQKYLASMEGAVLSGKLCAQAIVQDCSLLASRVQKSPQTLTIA
UniProt Q66PY0, 1-580 R304N: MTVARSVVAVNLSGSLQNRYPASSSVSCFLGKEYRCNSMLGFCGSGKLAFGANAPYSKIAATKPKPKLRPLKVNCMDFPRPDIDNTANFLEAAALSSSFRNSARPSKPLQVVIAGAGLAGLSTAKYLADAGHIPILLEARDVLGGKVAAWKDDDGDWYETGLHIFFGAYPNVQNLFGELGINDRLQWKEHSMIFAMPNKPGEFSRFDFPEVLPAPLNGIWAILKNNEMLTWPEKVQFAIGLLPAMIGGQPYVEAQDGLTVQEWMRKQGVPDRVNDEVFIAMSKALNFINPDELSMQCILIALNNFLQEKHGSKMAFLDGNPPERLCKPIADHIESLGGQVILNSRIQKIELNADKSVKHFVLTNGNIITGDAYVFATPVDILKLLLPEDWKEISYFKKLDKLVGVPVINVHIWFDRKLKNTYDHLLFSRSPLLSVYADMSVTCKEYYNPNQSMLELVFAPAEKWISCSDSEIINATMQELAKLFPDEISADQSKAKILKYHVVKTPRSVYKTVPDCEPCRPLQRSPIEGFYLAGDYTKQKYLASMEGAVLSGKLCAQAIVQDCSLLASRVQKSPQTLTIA
UniProt Q66PY0, 1-580 R304D: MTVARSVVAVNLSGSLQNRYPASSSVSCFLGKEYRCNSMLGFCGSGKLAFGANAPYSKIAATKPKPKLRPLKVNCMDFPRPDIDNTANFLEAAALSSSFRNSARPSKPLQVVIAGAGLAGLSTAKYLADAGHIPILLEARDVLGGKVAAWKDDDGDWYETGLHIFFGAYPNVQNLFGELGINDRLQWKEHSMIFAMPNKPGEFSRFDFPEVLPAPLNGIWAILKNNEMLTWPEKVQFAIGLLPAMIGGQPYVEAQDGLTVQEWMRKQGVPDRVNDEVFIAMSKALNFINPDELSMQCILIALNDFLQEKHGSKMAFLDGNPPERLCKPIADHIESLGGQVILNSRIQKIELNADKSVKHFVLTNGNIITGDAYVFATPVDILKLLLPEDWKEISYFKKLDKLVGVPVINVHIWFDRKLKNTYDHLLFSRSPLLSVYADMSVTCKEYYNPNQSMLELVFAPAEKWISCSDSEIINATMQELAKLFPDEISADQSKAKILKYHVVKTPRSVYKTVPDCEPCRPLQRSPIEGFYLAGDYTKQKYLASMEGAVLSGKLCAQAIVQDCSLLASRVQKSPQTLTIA
UniProt Q66PY0, 1-580 R304L: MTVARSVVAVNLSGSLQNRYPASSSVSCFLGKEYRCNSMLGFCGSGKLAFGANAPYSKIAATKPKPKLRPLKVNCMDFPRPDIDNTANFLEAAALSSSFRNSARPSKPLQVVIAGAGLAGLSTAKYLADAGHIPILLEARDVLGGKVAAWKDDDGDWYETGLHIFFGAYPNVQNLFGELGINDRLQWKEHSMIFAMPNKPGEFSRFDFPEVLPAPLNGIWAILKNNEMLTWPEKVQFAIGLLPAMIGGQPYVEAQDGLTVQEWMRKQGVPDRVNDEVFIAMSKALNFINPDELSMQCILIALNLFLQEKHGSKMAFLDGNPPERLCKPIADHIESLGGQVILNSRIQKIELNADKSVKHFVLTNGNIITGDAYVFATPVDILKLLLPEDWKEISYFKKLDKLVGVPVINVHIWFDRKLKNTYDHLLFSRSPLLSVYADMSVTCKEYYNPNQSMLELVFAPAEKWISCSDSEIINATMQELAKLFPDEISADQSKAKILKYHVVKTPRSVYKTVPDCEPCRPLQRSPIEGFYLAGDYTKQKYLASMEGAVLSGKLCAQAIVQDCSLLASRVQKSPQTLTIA
UniProt Q66PY0, 1-580: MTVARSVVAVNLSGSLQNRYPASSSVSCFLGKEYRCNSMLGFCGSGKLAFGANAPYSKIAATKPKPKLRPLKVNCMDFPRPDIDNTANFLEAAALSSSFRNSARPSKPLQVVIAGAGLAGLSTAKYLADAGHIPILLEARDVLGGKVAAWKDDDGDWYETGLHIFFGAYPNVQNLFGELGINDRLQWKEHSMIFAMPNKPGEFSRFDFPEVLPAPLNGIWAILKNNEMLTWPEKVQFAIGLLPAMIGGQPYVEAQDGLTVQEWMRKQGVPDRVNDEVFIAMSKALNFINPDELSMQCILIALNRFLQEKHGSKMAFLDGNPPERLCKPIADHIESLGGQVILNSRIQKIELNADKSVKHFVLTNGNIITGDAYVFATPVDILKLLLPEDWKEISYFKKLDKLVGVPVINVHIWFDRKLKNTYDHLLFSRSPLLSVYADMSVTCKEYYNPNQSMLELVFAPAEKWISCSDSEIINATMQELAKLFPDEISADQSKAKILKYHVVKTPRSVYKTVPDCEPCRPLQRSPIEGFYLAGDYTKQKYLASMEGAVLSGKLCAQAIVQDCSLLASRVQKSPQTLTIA
UniProt Q66PY0, 1-580 R304E: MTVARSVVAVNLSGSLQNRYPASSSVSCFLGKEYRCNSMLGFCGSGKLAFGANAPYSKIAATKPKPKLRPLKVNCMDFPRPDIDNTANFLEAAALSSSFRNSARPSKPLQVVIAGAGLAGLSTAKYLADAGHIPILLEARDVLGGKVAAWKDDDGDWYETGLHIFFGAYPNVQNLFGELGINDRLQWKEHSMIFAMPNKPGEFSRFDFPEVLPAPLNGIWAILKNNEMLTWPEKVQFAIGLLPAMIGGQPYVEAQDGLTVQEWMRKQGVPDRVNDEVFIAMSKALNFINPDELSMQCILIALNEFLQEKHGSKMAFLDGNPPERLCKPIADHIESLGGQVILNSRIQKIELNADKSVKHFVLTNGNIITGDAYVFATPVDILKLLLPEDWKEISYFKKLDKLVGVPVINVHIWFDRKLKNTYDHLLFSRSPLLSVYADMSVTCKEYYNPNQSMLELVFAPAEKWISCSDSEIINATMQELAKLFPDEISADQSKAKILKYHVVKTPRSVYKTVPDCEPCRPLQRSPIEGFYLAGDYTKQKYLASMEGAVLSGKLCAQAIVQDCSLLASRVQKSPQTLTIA
UniProt Q66PY0, 1-580 R304A: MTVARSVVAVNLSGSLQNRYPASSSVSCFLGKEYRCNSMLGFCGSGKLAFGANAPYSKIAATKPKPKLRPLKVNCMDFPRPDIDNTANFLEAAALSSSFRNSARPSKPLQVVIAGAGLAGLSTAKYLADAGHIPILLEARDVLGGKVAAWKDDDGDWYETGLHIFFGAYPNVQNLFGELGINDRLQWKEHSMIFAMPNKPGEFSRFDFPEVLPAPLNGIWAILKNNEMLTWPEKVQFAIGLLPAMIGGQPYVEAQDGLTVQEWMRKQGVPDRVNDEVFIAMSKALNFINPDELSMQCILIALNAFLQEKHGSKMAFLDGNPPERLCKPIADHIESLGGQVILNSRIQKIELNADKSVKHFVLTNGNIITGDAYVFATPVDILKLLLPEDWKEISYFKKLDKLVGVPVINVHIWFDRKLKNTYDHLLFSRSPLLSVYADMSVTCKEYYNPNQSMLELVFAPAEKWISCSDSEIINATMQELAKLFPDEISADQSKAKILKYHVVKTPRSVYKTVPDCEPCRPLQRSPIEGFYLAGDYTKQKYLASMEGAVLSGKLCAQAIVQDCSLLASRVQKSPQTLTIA
UniProt Q66PY0, 1-580 R304T: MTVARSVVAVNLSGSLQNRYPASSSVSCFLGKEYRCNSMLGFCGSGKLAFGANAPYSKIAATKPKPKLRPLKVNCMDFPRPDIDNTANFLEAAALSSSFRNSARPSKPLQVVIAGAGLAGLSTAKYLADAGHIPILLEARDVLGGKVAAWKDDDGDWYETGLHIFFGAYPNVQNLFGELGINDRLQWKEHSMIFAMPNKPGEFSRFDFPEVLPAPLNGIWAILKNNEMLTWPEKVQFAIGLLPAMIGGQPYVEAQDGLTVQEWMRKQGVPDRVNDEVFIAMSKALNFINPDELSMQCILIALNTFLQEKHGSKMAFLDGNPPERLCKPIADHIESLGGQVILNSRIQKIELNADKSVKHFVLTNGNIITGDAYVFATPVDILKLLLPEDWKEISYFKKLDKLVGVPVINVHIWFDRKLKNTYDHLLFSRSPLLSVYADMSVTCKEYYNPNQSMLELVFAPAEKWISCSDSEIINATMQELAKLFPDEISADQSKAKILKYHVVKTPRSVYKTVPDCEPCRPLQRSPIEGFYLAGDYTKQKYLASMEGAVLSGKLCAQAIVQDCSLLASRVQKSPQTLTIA
UniProt Q66PY0, 1-580 R304M: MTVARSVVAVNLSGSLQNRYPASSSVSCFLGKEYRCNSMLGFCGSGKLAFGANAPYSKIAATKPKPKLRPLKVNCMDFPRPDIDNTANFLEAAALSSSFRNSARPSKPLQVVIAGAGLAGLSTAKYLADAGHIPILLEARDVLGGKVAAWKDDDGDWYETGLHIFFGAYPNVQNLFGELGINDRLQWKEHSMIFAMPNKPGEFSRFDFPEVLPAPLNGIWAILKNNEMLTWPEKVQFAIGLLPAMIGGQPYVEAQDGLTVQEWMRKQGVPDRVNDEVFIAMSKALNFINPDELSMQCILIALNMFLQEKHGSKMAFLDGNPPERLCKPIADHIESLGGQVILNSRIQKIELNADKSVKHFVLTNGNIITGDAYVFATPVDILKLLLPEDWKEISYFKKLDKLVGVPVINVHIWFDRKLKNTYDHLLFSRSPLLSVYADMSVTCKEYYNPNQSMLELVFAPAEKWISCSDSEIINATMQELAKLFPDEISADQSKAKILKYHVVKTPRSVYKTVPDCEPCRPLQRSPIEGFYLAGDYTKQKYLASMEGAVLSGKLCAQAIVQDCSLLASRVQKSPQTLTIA
UniProt Q66PY0, 1-580 R304V: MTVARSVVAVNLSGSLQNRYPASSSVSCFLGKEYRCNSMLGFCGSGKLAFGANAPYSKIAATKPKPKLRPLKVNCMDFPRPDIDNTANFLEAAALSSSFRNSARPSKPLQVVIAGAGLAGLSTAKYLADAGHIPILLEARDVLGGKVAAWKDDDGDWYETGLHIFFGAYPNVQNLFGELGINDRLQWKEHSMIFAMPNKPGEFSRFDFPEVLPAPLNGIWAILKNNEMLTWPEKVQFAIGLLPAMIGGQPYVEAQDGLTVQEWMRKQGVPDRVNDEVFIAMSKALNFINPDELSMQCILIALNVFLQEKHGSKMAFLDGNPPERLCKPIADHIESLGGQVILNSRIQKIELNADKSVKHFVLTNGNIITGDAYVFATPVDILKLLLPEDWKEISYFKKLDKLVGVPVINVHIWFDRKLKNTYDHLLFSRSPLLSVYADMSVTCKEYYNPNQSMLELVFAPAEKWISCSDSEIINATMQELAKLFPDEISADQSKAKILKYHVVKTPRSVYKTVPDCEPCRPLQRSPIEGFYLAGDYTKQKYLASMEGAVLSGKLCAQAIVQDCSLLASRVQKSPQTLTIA

According to patent publication US20110098180A1, “Herbicide-Resistant Plants, And Polynucleotides And Methods For Providing Same” (United States Department of Agriculture, priority 2002, published 2011):

How the values were obtained:
Test in all cases: Fluridone enzyme inhibition assay, non-His-tagged PDS (Table 1)
Format in all cases: biochemical
[1] = molecular target: Hydrilla PDS Arg^304 → Lysine (Hydrilla verticillata, UniProt Q66PY0, R304K); settings: read-out: I50, construct not in frame with LacZalpha-ccdB
Method: (§1) The expression constructs in Table 1 were derived from an original clone of the susceptible PDS gene from Hydrilla and then the Arg^304 was mutated to the listed amino acid. Expression was under the control of the lac promoter […] with the initiation codon of the LacZalpha-ccdB gene in the pCR4-TOPO vector (Invitrogen Inc., CA, Cat. #K4575-01).
(§2) All mutagenesis was performed, unless stated otherwise, using the TOPO-vector containing the wildtype (H4) PDS-sequence, which was extracted from an overnight culture with the Qiagen Plasmid Prep Kit as described above. The amount of the extracted plasmid was diluted to 10 ng/μl and used as template in a mutagenesis-procedure using the QuikChange Site-directed Mutagenesis Kit (Stratagene, Calif., #200518). The design of the mutagenesis-primers was conducted according to the manufacturers protocol to enable the specific change of Arg^304-codon to code for the desired amino acid. Primers (purchased from MWG-Biotech) and their introduced amino acid change are listed below with the changed codon underlined:
(§3) The reactions were performed according to the manufacturers protocol. Reactions were set up in MicroAmp-tubes on ice with 38 μl ddH2O, 5 μl 10× reaction buffer, 2 μl plasmid (10 ng/μl), 1.25 μl forward-mutagenesis primer (100 ng/μl), 1.25 μl of reverse mutagenesis primer (100 ng/μl), 1 μl dNTP-mix and 1 μl PfuTurboDNA polymerase (2.5 U/μl). The reactions were placed in a PE 9700 thermal cycler and heated to 95° C. for 30 sec followed by 12 rounds at 95° C. for 30 sec, 55° C. for 1 min and 68° C. for 12 min. The PCR was followed by a DpnI-digestion and transformation in XL1-Blue supercompetent cells as described in the manual. 4-6 resulting colonies were grown overnight in LB-medium with kanamycin and plasmid DNA was isolated as described above. The plasmid was used as template for sequencing with M13 and internal PDS-primers as described above on a LiCOR-system. Sequences were assembled and analyzed using Seqman. Introduced mutations were identified and plasmids carrying the desired mutation(s) were transferred into competent TOP10-cells, using the transformation protocol from the TOPO TA Cloning Kit. Resulting colonies were grown overnight in Wu-broth with kanamycin, aliquoted and stored at −80° C. until further use. 1 ml of Wu-cultures was used to start 1-L LB-cultures with kanamycin as described before, to express active PDS-enzyme for testing as described.
(§4) Phytoene desaturase activity and its inhibition by herbicides was determined using an in vitro system using components derived from the in vivo production of phytoene and phytoene desaturase proteins. All mutations described in Examples 3 and 4 were tested. […] The clones were used for the heterologous expression of Hydrilla-PDS-enzyme. In particular, bacterial cultures were grown from single colonies overnight in Wu-broth (6.27 g/L K2HPO4, 1.8 g/L KH2PO4, 0.5 g/L Na-citrate, 0.9 g/L (NH4)2SO4, 10 g/L tryptone, 5 g/L yeast extract, 10 g/L NaCl, 44 ml/L glycerol, 0.1 mM MgSO4, pH 7.2) with kanamycin. 1-mL was aliquoted in centrifuge tube and stored at −80° C. For expression, 1 L LB-medium with kanamycin was inoculated with 1-mL Wu-culture and grown for 24 h at 37° C. to stationary phase with shaking at 200 rpm. The cells were collected by centrifugation at 2000×g. All of the following steps were done at 4° C. unless otherwise noted. Active soluble PDS enzyme was extracted by lysing the transformed E. coli cells using a French Press at 20,000 psi in assay buffer consisting of 100 mM Tris-HCl, pH 7.2, 10 mM magnesium-chloride, 0.1 mM NADP, 0.1 mM FAD, 10 mM cysteine, 5 mM DTT, 1 mM aminocaproic acid, and 1 μg/ml leupeptin. The soluble fraction containing PDS activity was obtained by centrifugation for 10 min at 1200×g. After 24 h they were centrifuged down and used in PDS enzyme activity assays as described below.

[2] = molecular target: Hydrilla PDS Arg^304 → Tyrosine (Hydrilla verticillata, UniProt Q66PY0, R304Y); settings: read-out: I50, construct not in frame with LacZalpha-ccdB
Method: as §1, §2, §3, §4

[3] = molecular target: Hydrilla PDS Arg^304 → Asparagine (Hydrilla verticillata, UniProt Q66PY0, R304N); settings: read-out: I50, construct not in frame with LacZalpha-ccdB
Method: as §1, §2, §3, §4

[4] = molecular target: Hydrilla PDS Arg^304 → Aspartic acid (Hydrilla verticillata, UniProt Q66PY0, R304D); settings: read-out: I50, construct not in frame with LacZalpha-ccdB
Method: as §1, §2, §3, §4

[5] = molecular target: Hydrilla PDS Arg^304 → Leucine (Hydrilla verticillata, UniProt Q66PY0, R304L); settings: construct not in frame with LacZalpha-ccdB, read-out: I50
Method: as §1, §2, §3, §4

[6] = molecular target: Hydrilla PDS Arg^304 Arginine (wildtype) (Hydrilla verticillata, UniProt Q66PY0); settings: Arginine at 304 (susceptible); construct not in frame with LacZalpha-ccdB; read-out: I50
Method: as §1, §2, §3, §4

[7] = molecular target: Hydrilla PDS Arg^304 → Glutamic acid (Hydrilla verticillata, UniProt Q66PY0, R304E); settings: read-out: I50, construct not in frame with LacZalpha-ccdB
Method: as §1, §2, §3, §4

[8] = molecular target: Hydrilla PDS Arg^304 → Alanine (Hydrilla verticillata, UniProt Q66PY0, R304A); settings: read-out: I50, construct not in frame with LacZalpha-ccdB
Method: as §1, §2, §3, §4

[9] = molecular target: Hydrilla PDS Arg^304 → Threonine (Hydrilla verticillata, UniProt Q66PY0, R304T); settings: read-out: I50, construct not in frame with LacZalpha-ccdB
Method: as §1, §2, §3, §4

[10] = molecular target: Hydrilla PDS Arg^304 → Methionine (Hydrilla verticillata, UniProt Q66PY0, R304M); settings: read-out: I50, construct not in frame with LacZalpha-ccdB
Method: as §1, §2, §3, §4

[11] = molecular target: Hydrilla PDS Arg^304 → Valine (Hydrilla verticillata, UniProt Q66PY0, R304V); settings: read-out: I50, construct not in frame with LacZalpha-ccdB
Method: as §1, §2, §3, §4

[12] = molecular target: Hydrilla PDS Arg^304 → Phenyalanine (Hydrilla verticillata, UniProt Q66PY0, R304F); settings: read-out: I50, construct not in frame with LacZalpha-ccdB
Method: as §1, §2, §3, §4

[13] = molecular target: Hydrilla PDS Arg^304 → Isoleucine (Hydrilla verticillata, UniProt Q66PY0, R304I); settings: read-out: I50, construct not in frame with LacZalpha-ccdB
Method: as §1, §2, §3, §4

[14] = molecular target: Hydrilla PDS Arg^304 → Glycine (Hydrilla verticillata, UniProt Q66PY0, R304G); settings: read-out: I50, construct not in frame with LacZalpha-ccdB
Method: as §1, §2, §3, §4

[15] = molecular target: Hydrilla PDS Arg^304 → Glutamine (Hydrilla verticillata, UniProt Q66PY0, R304Q); settings: read-out: I50, construct not in frame with LacZalpha-ccdB
Method: as §1, §2, §3, §4

## Fluridone
[1]
  IC50: 1 µM
[2]
  IC50: 0.81 µM
[3]
  IC50: 0.63 µM
[4]
  IC50: 2 µM
[5]
  IC50: 3.2 µM
[6]
  IC50: 0.2 µM
[7]
  IC50: 0.31 µM
[8]
  IC50: 4.5 µM
[9]
  IC50: 10 µM
[10]
  IC50: 2.3 µM
[11]
  IC50: 2.2 µM
[12]
  IC50: 0.53 µM
[13]
  IC50: 2 µM
[14]
  IC50: 0.64 µM
[15]
  IC50: 3.8 µM
